## Measured water solubility values of organic chemicals

Data: OPERA 2.9 data sets, kmansouri/OPERA on GitHub.

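The numbers are reported measurements, compiled and curated for the OPERA QSAR suite. The files give a single number for a compound and property, which may rest on several reports. Method and conditions are not stated for these values. Where a salt, mixture or single isomer is drawn, the source does not say that exactly this form was tested. Some upstream entries may be estimates or bounds without being marked so.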

Water solubility is log10 of mol/L, nominally at 25 °C; higher is more soluble.

{"smiles": "CC(=O)c1cccc(NC(N)=O)c1", "name": "N-(3-Acetylphenyl)urea", "water solubility (log10 mol/L)": "-1.874"}
{"smiles": "CC(=O)OC(C)(C)C1CC=C(C)CC1", "stereo": "stereo not given", "name": "alpha-Terpinyl acetate", "water solubility (log10 mol/L)": "-3.931"}
{"smiles": "CCOCCOC(=O)/C(C#N)=C1\\C=C(NCCCOC)CCC1", "water solubility (log10 mol/L)": "-2.855"}
{"smiles": "CCCCCCC(=O)Oc1c(Br)cc(C#N)cc1Br", "name": "Bromoxynil heptanoate", "water solubility (log10 mol/L)": "-6.69"}
{"smiles": "O=C(CCCN1CCC(O)(c2ccc(Cl)cc2)CC1)c1ccccc1", "water solubility (log10 mol/L)": "-4.709"}
{"smiles": "Nc1cccc(S(N)(=O)=O)c1", "name": "Benzenesulfonamide, 3-amino-", "water solubility (log10 mol/L)": "-1.16"}
{"smiles": "C=CC(=O)NC(C)(C)CC(C)(C)C", "name": "N-tert-Octylacrylamide", "water solubility (log10 mol/L)": "-2.259"}
{"smiles": "Oc1ccc(-c2ccc(O)cc2)cc1", "name": "4,4'-Biphenyldiol", "water solubility (log10 mol/L)": "-3.742"}
{"smiles": "CCC=C(C)C(O)CCCCC", "stereo": "stereo not given", "name": "4-Methyl-3-decen-5-ol", "water solubility (log10 mol/L)": "-3.432"}
{"smiles": "CCCCCC(C)(C)OC", "name": "2-Methoxy-2-methylheptane", "water solubility (log10 mol/L)": "-3.084"}
{"smiles": "C=C(C)C(=O)OCCCCCCOC(=O)C(=C)C", "name": "1,6-Hexanediol dimethacrylate", "water solubility (log10 mol/L)": "-4.044"}
{"smiles": "CCC(C)C1CCCc2cccnc21", "stereo": "stereo not given", "name": "8-sec-Butyl-5,6,7,8-tetrahydroquinoline", "water solubility (log10 mol/L)": "-3.438"}
{"smiles": "CO/N=C(\\C(=O)N[C@H]1C(=O)N2C(C(=O)O)=C(COC(N)=O)CS[C@@H]12)c1ccco1", "name": "Cefuroxime", "water solubility (log10 mol/L)": "-3.32"}
{"smiles": "CN(C)C(=O)c1cc2cnc(Nc3ccc(N4CCN(C(=O)OC(C)(C)C)CC4)cn3)nc2n1C1CCCC1", "water solubility (log10 mol/L)": "-6.337"}
{"smiles": "O=S(=O)(O)c1cc(Br)cc2cccnc12", "name": "6-Bromoquinoline-8-sulfonic acid", "water solubility (log10 mol/L)": "-2.558"}
{"smiles": "CCCCCCCCCCCCCCCCCCCCCC(=O)O[C@H]1[C@@H]([C@@H](CO)OC(=O)CCCCCCCCCCCCCCCCCCCCC)OC[C@@H]1OC(=O)CCCCCCCCCCCCCCCCCCCCC", "name": "Sorbitan, tridocosanoate", "water solubility (log10 mol/L)": "-6.334"}
{"smiles": "CS(=O)(=O)C(S(C)(=O)=O)S(C)(=O)=O", "name": "Tris(methylsulfonyl)methane", "water solubility (log10 mol/L)": "-3.268"}
{"smiles": "CCCCCOC(=O)CCCC", "name": "Pentyl valerate", "water solubility (log10 mol/L)": "-3.624"}
{"smiles": "N#CCCOc1ccccc1", "name": "3-Phenoxypropiononitrile", "water solubility (log10 mol/L)": "-1.915"}
{"smiles": "CCCCC(=O)OCC(=O)[C@H]1[C@H](C)C[C@H]2[C@@H]3C[C@H](F)C4=CC(=O)C=C[C@]4(C)[C@@]34O[C@H]4C[C@@]21C", "water solubility (log10 mol/L)": "-5.604"}
{"smiles": "Brc1ccc(-c2ccc(Br)cc2)cc1", "name": "1,1'-Biphenyl, 4,4'-dibromo-", "water solubility (log10 mol/L)": "-7.74"}
{"smiles": "CC(C)CCN", "name": "3-Methyl-1-butanamine", "water solubility (log10 mol/L)": "0.759"}
{"smiles": "CC(=O)Nc1ccc(S(N)(=O)=O)cc1", "name": "4'-Sulfamylacetanilide", "water solubility (log10 mol/L)": "-1.61"}
{"smiles": "CC1(C(=O)O)CCC2(C)CCC3(C)C(=CC(=O)C4C5(C)CCC(OC6OC(C(=O)O)C(O)C(O)C6OC6OC(C(=O)[O-])C(O)C(O)C6O)C(C)(C)C5CCC43C)C2C1.[NH4+]", "stereo": "stereo not given", "name": "Ammonium glycyrrhizate", "water solubility (log10 mol/L)": "-2.225"}
{"smiles": "O=C(c1ccc(F)cc1)c1ccc(F)cc1", "name": "4,4'-Difluorobenzophenone", "water solubility (log10 mol/L)": "-4.396"}
{"smiles": "NC(=O)N(CCCO)N=Cc1ccc([N+](=O)[O-])o1", "water solubility (log10 mol/L)": "-2.6"}
{"smiles": "O=[N+]([O-])c1ccccc1CNc1ccccc1", "name": "N-(2-Nitrobenzyl)aniline", "water solubility (log10 mol/L)": "-0.702"}
{"smiles": "CCOCCCNS(=O)(=O)c1ccc(Oc2cc(O)c3c(c2N)C(=O)c2ccccc2C3=O)cc1", "water solubility (log10 mol/L)": "-4.787"}
{"smiles": "CCOC(=O)CCC(=O)CC1(O)C2(Cl)C3(Cl)C4(Cl)C(Cl)(Cl)C5(Cl)C3(Cl)C1(Cl)C5(Cl)C42Cl", "stereo": "stereo not given", "name": "Kelevan", "water solubility (log10 mol/L)": "-5.06"}
{"smiles": "CCCCCCCCCCCCc1ccc(N=Nc2ccc(O)c(N=Nc3ccc(CCCCCCCCCCCC)cc3)c2O)cc1", "name": "2,4-Bis[(4-dodecylphenyl)azo]resorcinol", "water solubility (log10 mol/L)": "-8.436"}
{"smiles": "O=C(O)COc1ccc(C2CCCCC2)cc1", "name": "(4-cyclohexylphenoxy)acetic acid", "water solubility (log10 mol/L)": "-3.495"}
{"smiles": "OCCCCCCCCCCCCO", "name": "1,12-Dodecanediol", "water solubility (log10 mol/L)": "-4.034"}
{"smiles": "CC(CCC(=O)O)CC(=O)O", "stereo": "stereo not given", "name": "3-Methylhexanedioic acid", "water solubility (log10 mol/L)": "0.19"}
{"smiles": "C#CC(C)(O)CC(C)C", "stereo": "stereo not given", "name": "3,5-Dimethyl-1-hexyn-3-ol", "water solubility (log10 mol/L)": "-1.06"}
{"smiles": "CCCCC(C(=O)OCC)C(=O)OCC", "name": "Diethyl butylmalonate", "water solubility (log10 mol/L)": "-2.816"}
{"smiles": "Cc1ccccc1NC(=O)c1cc2ccccc2c(N=Nc2ccc(Cl)cc2[N+](=O)[O-])c1O", "water solubility (log10 mol/L)": "-7.563"}
{"smiles": "CS(=O)(=O)c1ccc(C(=O)C2=C(Sc3ccccc3)C3CCC(C3)C2=O)c(Cl)c1", "stereo": "stereo not given", "name": "Benzobicyclon", "water solubility (log10 mol/L)": "-6.932"}

Excerpt, the opening 3 entries:

{"smiles": "CC(=O)c1cccc(NC(N)=O)c1", "name": "N-(3-Acetylphenyl)urea", "water solubility (log10 mol/L)": "-1.874"}
{"smiles": "CC(=O)OC(C)(C)C1CC=C(C)CC1", "stereo": "stereo not given", "name": "alpha-Terpinyl acetate", "water solubility (log10 mol/L)": "-3.931"}
{"smiles": "CCOCCOC(=O)/C(C#N)=C1\\C=C(NCCCOC)CCC1", "water solubility (log10 mol/L)": "-2.855"}